Data published in patent US20250041259A1, “TOPICAL COMPOSITIONS FOR REDUCING SCARRING” (Omeza Holdings, Inc., priority 2022, published 2025).

Conditions: @185° F.

zinc acetate
amount dissolved in Example 16 oils: 0.08 g/100 g
